In PubChem BioAssay (NCI):
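Interpolation was linear, between the two tested concentrations surrounding the appropriate level; five concentrations were tested over 48 hours in 96-well plates. Abbreviation: GI50, concentration required for 50% inhibition of growth. TGI: concentration producing complete growth inhibition.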

Tested on: MDA-MB-468 breast
Assay: growth of human tumour cells (NCI), 48 h

## Cc1c([N+](=O)[O-])cc([N+](=O)[O-])c(Br)c1[N+](=O)[O-]
  GI50: 1.29 µM
  TGI: 2.71 µM
